# Test results from US8815213B2, “RGD-(bacterio)chlorophyll conjugates for photodynamic therapy and Imaging of Necrotic tumors” (Yeda Research and Development Co. Ltd., priority 2008, dated 2014).
# Legend:
# [1] = test system: orthotopic human breast MDA-MB-231-RFP primary tumor, necrotic (~1 cm^3); experiment: In-vivo whole body NIR fluorescence imaging of drug up-take in primary necrotic MDA-MB-231-RFP xenograft tumors; conditions: 15 mg/kg i.v.; days 1-7 post injection
# [2] = test system: MDA-MB-231-RFP non-necrotic tumors (~0.5 cm^3); experiment: In-vivo whole body NIR fluorescence imaging of drug up-take in primary non-necrotic MDA-MB-231-RFP xenograft tumors; conditions: post injection
substance,measurement,setting,value
Palladium 3^1-oxo-15-methoxycarbonyl-methyl-Rhodobacteriochlorin 13^1-(2-sulfoethyl)amide-17^3-c(RGDfK)amide potassium salt [compound 24],clearance from the liver in the following days,[1],no complete clearance
same,complete drug clearance by that time,[2],≤ 2 days
